This is a selection; strong and weak results do not stand in their true shares. Calls of active or inactive are those of the source. Calls follow the shape of the dose curve; as a rule, active = well fitted activation curve with a large enough effect; inconclusive = small, poorly fitted or top-dose-only effect; inactive = flat fitted curve, though single readings scatter.
Assay: qHTS of alpha-syn Inhibitors: NCGC Sytravon Library Screen; also: 0% is about no effect
Details: S. cerevisiae alpha-synuclein toxicity rescue, BacTiter-Glo growth, 24 h; at 46.1 µM (top of the series)
Excerpt: The goal of this project is to identify new chemical probes capable of reversing the toxicity associated with the Parkinson disease-related protein, alpha-synuclein. Compounds will be selected on their ability to restore growth in yeast cells expressing toxic levels of alpha-synuclein. These compounds will provide a complementary approach to deciphering the tangled mechanisms of toxicity and protection that we have uncovered through genome-wide genetic screens and are beginning to uncover in a large-scale proteomics analysis with mass spectroscopy. To this end, a miniaturized assay was developed to be screened against the Molecular Libraries Small Molecule Repository (MLSMR) to discover alpha-synuclein inhibitors. […] The phenotype of interest will be that of an Activator and this screen is run against the NCGC Sytravon Library collection. NIH Chemical Genomics Center [NCGC] NIH Molecular Libraries Probe Centers Network [MLPCN] MLPCN Grant: NS060957 Assay Submitter (PI): Susan Lindquist, Whitehead Institute/MIT
Dispense 2.5 microL yeast galactose medium per 1536-well plate, pin compound, dispense 2.5 microL alpha-synuclein expressing yeast in galactose medium at OD600=0.02 (pregrown in raffinose medium to mid-log phase) per well, incubate for 24 hr at 30 deg C, and cell growth will be measured using 5 microL of Bactiter/Glo reagent to entire plate and read using Luminescence Protocol in ViewLux.

| Compound | growth rescue (activation) |
| --- | --- |
| CCCOc1cccc(C(=O)NCC2(N3CCOCC3)CCCCC2)c1 | inactive: -3.39% |
| COc1cc(C(=O)NCC2(N3CCCCC3)CCCCC2)ccc1OC(F)F | inactive: 7.99% |
| CCOc1ccc(C(=O)NCC2(N3CCOCC3)CCCCC2)cc1 | inactive: -5.24% |
| O=C(OC1CN2CCC1CC2)c1ccc([N+](=O)[O-])cc1 (configuration not stated) | inactive: 6.37% |
| Cc1ccc(C(=O)NCC2(N(C)C)CCCCC2)o1 | inactive: -0.391% |
| CCCCOc1ccccc1C(=O)NCC1(N2CCOCC2)CCCCC1 | inactive: -1.58% |
| CCCOc1ccc(C(=O)NCC2(N(C)C)CCCCC2)cc1OC | inactive: -0.0919% |
| O=C(NCC1(N2CCOCC2)CCCCC1)c1ccccc1Br | inactive: 2.59% |
| O=[N+]([O-])c1cc([N+](=O)[O-])c(Nc2ccc(Cl)cc2)c([N+](=O)[O-])c1 | inactive: -62% |
| O=C(NCC1(N2CCCCC2)CCCCC1)c1ccc(Cl)nc1 | inactive: -0.654% |
| COc1ccc(C(=O)NCC2(N3CCCCC3)CCCCC2)cc1 | inactive: 5.44% |
| COc1cc(C(=O)NCC2(N(C)C)CCCCC2)ccc1OC(F)F | inactive: -10% |
| O=C(NCC1(N2CCOCC2)CCCCC1)c1ccc(Cl)cc1 | inactive: -54% |
| O=C(NCC1(N2CCCCC2)CCCCC1)c1ccc(F)cc1 | inactive: -0.224% |
| COc1ccccc1C(=O)NCC1(N2CCOCC2)CCCCC1 | inactive: -9.54% |
| CC(C)(C)c1ccc(C(=O)NCC2(N3CCOCC3)CCCCC2)cc1 | inactive: -1.99% |
| Cc1ccccc1C(=O)NCC1(N(C)C)CCCCC1 | inactive: -6% |
| CN(C)C1(CNC(=O)c2ccc(C(C)(C)C)cc2)CCCCC1 | inactive: -14.2% |
| Cc1ccc(C(=O)NCC2(N3CCCCC3)CCCCC2)o1 | inactive: 10.2% |
| Cc1ccc(Nc2c([N+](=O)[O-])cc([N+](=O)[O-])cc2[N+](=O)[O-])cc1 | inactive: -13.7% |
| COc1cc(C(=O)NCC2(N3CCOCC3)CCCCC2)cc(OC)c1OC | inactive: 4.7% |
| COc1cc(OC)cc(C(=O)NCC2(N3CCOCC3)CCCCC2)c1 | inactive: 13.1% |
| CCc1cc(C(=O)NCC2(N3CCCCC3)CCCCC2)sc1C | inactive: 0.104% |
| O=C(NCC1(N2CCOCC2)CCCCC1)c1ccccc1 | inactive: -5.38% |
| O=C(NCC1(N2CCOCC2)CCCCC1)c1ccc([N+](=O)[O-])cc1 | inactive: 1.84% |
| O=C(NCC1(N2CCOCC2)CCCCC1)c1ccccc1[N+](=O)[O-] | inactive: -11.4% |
| N#Cc1ccc(C(=O)NCC2(N3CCCCC3)CCCCC2)cc1 | inactive: -1.07% |

From PubChem BioAssay AID1347070 (National Center for Advancing Translational Sciences (NCATS), 2019)
